Source: PubChem BioAssay (National Center for Advancing Translational Sciences (NCATS))
Hits are enriched below; roughly 13% of the tested compounds scored in any of these assays.
G9a block = G9a (human) methyltransferase inhibition. G9a H3K9 monomethylation, AlphaScreen, 2 h. Potency, µM (titrated, usually from 102 µM), hits mostly inhibitors. actives 8.8% (n = 350,000). AID 504332; also: nearly all actives have a fitted effect of over 75% in size
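AlphaScreen read-out: biotin-H3K9 peptide (500 nM) methylation by 20 nM enzyme with 20 uM SAM, 2 h at room temperature after 15 min compound preincubation; anti-monomethyl H3K9 antibody plus donor/acceptor beads, 10 min dark.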
KDM4E inh = inhibitors of human JMJD2E histone demethylase. B2RXH2. JMJD2E catalytic domain, FDH-coupled NADH fluorescence (FDH is formaldehyde dehydrogenase). Potency, µM (titrated, usually from 57.1 µM), hits mostly inhibitors. actives 1.6% (n = 230,000). AID 2147; active = well fitted inhibition curve with a large enough effect, not every such curve was filed as active; inconclusive = small, poorly fitted or top-dose-only effect, or another doubt; inactive = no such curve, though single readings can be large or run the other way; also: nearly all actives have a fitted effect of over 50% in size
ALDH1A1 block = inhibitors of human aldehyde dehydrogenase 1A1; P00352; Purified ALDH1A1, NADH fluorescence, propionaldehyde substrate; Potency, µM (top dose mostly 75.3 µM), hits mostly inhibitors; actives 7.3% (n = 220,000); AID 1030; active = well fitted inhibition curve with a large enough effect, not every such curve was filed as active; inconclusive = small, poorly fitted or top-dose-only effect, or another doubt; inactive = no such curve, though single readings can be large or run the other way
Sfp PPTase inh = blocks B. subtilis Sfp PPTase activity. Potency, µM, most hits filed as inhibitors. actives 3.5% (n = 310,000). Q9F4F7. Biochemical Sfp PPTase activity, qHTS;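 also: the enzyme is Sfp with the accession as filed and its product quenches rhodamine fluorescence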
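Sfp 15 nM + cpd, 15 min RT; start w/ rhodamine-CoA 5 uM, BHQ-2-YbbR 12.5 uM (final); 50 mM Hepes pH 7.6, 10 mM MgCl2, 0.01% NP-40, 0.01% BSA; read 525/598 nm at 0 and 30 min.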
Lamin A splicing = LMNA splicing modulation | HeLa LMNA splicing GFP/RFP minigene ratio, 48 h | Potency, µM (series often up to 46.1 µM), most hits filed as inhibitors | actives 0.01% (n = 200,000) | AID 1487; active = well fitted inhibition curve with a large enough effect in the signal ratio, with a control signal flat, not every such curve was filed as active; inconclusive = small, poorly fitted or top-dose-only effect, or effect the other way, or a change in a side signal; the % refers to the signal ratio
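Read-out is the ratio of GFP to DsRed2 object intensity, acquired by 488 nm laser-scanning cytometry on HeLa lamin A-EGFP minigene reporter cells. Compound incubation 48 hrs at 37 °C in Opti-MEM with 2% FBS; DMSO 0.5% final.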
miR-21 FLuc = miR-21 reporter, rising signal; Potency, µM (doses to about 38.3 µM); HeLa miR-21 FLuc reporter, luciferase, 48 h; 340,000 tested, under 10 active; active = well fitted rising curve with a large enough effect; inconclusive = small, poorly fitted or top-dose-only effect; inactive = no such curve, though single readings can be large or run the other way;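 further: miR-21 action dims this reporter so a rising signal means less miR-21 action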
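HeLa cells endogenously expressing miR-21, stably carrying CMV-driven firefly luciferase with a downstream miR-21 binding site, 2000 cells/well. Titrations up to approximately 40 uM, 48 hours; luciferase luminescence read.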
Large screens that a line does not name were inactive. Unless noted, calls follow the shape of the dose curve; as a rule, active = well fitted curve in the direction sought with a large enough effect; inconclusive = small, poorly fitted or top-dose-only effect, or another doubt; inactive = no such curve, though single readings can be large; an effect the other way counts as inactive or inconclusive.

COC(=O)c1ccccc1NC(=O)C1=CC(c2ccc(C)cc2)=NS(=O)(=O)N1C	G9a block 12.6µM (no result: KDM4E inh, ALDH1A1 block, Sfp PPTase inh, Lamin A splicing)
COc1ccc(NC(=O)C2=CC(c3ccc(C)cc3)=NS(=O)(=O)N2C)cc1	none (no result: G9a block, KDM4E inh, ALDH1A1 block, Lamin A splicing)
CN1C(C(=O)Nc2ccc(F)cc2F)=CC(c2ccc3c(c2)OCO3)=NS1(=O)=O	none (no result: KDM4E inh, ALDH1A1 block, Sfp PPTase inh, Lamin A splicing)
C=CCNC(=O)C1CC1(c1ccccc1)c1ccccc1 (stereo unspecified)	Lamin A splicing inconclusive
CCCCCCCCCCCCCCCCCCOC[C@H](COP(=O)([O-])OCC[N+](C)(C)C)OC(C)=O	none (no result: Lamin A splicing, miR-21 FLuc)
O=C(O)CCCN=CC1=C(O)CNC1=O	G9a block inconclusive (no result: Lamin A splicing)
Cc1cc(=O)oc2c(C(=O)/C=C\c3cccs3)c(O)ccc12	G9a block 44.7µM, ALDH1A1 block inconclusive, Sfp PPTase inh inconclusive, Lamin A splicing inconclusive
O=C(/C=C/c1cccs1)c1cc(Cl)ccc1O	G9a block 39.8µM, Lamin A splicing inconclusive
Cc1cc(=O)oc2c(C(=O)/C=C/c3ccccc3)c(O)ccc12	none
COc1ccc(NC(=O)C2CCN(S(=O)(=O)c3ccc4c(c3)CCCC(=O)N4)CC2)cc1Cl	none (no result: KDM4E inh, ALDH1A1 block, Sfp PPTase inh)
COc1ccccc1NS(=O)(=O)c1cccc(C(=O)NCc2ccco2)c1	G9a block inconclusive
Nc1nc(N2CCN(c3cccc(Cl)c3)CC2)n[nH]1	none
O=C(O)/C=C\C(=O)Nc1ccc(N2CCN(c3ccc(Cl)cc3)CC2)cc1	G9a block 10µM, ALDH1A1 block 11.2µM
O=C(Cc1ccc(Cl)cc1)Nc1ccc(N2CCCC2)cc1	G9a block inconclusive
O=C(O)/C=C/C(=O)Nc1ccc(-n2ccc(C(F)(F)F)n2)cc1	G9a block 44.7µM (no result: ALDH1A1 block, Lamin A splicing)
Nc1ccc(N2CCN(c3cccc(Cl)c3)CC2)cc1	G9a block 3.98µM, ALDH1A1 block 14.1µM, Lamin A splicing inconclusive
O=C(O)/C=C\C(=O)Nc1ccc(N2CCN(c3cccc(Cl)c3)CC2)cc1	ALDH1A1 block 28.2µM (no result: G9a block)
CC(=O)c1ccc(NC(=O)N2CCN(c3cccc(Cl)c3)CC2)cc1	none
COc1ccccc1CCNC(=O)c1ccc2c(c1)c(C)c(C)n2C	none (no result: KDM4E inh, ALDH1A1 block, Sfp PPTase inh, Lamin A splicing)
Cc1ccc(Cn2cc(S(=O)(=O)c3cccc(C)c3)c(=O)c3cc(F)c(N4CCOCC4)cc32)cc1	none (no result: KDM4E inh, ALDH1A1 block, Sfp PPTase inh)
O=C(O)/C=C\C(=O)Nc1ccc(N2CCN(c3ccc(F)cc3)CC2)cc1	ALDH1A1 block 8.91µM, Sfp PPTase inh inconclusive (no result: G9a block, Lamin A splicing)
CC(=O)N1CCN(c2ccc(NC(=O)/C=C/c3ccccc3)cc2)CC1	Lamin A splicing inconclusive
CC(C)c1ccc(N2CCN(C(=O)c3ccccc3NC(=O)/C=C\C(=O)O)CC2)cc1	G9a block inconclusive, KDM4E inh inconclusive, Sfp PPTase inh 79.4µM
O=C(O)/C=C\C(=O)Nc1ccccc1C(=O)N1CCN(c2ccc(Cl)cc2)CC1	none
O=C(O)/C=C\C(=O)Nc1ccc(N2CCN(c3ccc(Cl)c(Cl)c3)CC2)cc1	G9a block 31.6µM, KDM4E inh inconclusive, ALDH1A1 block 6.31µM
CC(=O)c1cccc(NC(=O)c2sc3nc4c(cc3c2N)CCCC4)c1	none (no result: KDM4E inh, ALDH1A1 block, Sfp PPTase inh, Lamin A splicing)
Cc1cccc(NC(=O)c2sc3nc4c(cc3c2N)CN(C(C)C)CC4)c1	G9a block 14.1µM (no result: KDM4E inh, ALDH1A1 block, Sfp PPTase inh, Lamin A splicing)
COc1ccccc1NC(=O)c1sc2nc3c(cc2c1N)CCCCCC3	none (no result: KDM4E inh, ALDH1A1 block, Sfp PPTase inh, Lamin A splicing)
Cc1cccc(NC(=O)c2sc3nc(N)c(C#N)cc3c2N)c1	G9a block 10µM, Lamin A splicing inconclusive
COc1ccc(NC(=O)c2sc3nc4c(cc3c2N)CN(C(C)C)CC4)c(OC)c1	G9a block 11.2µM (no result: KDM4E inh, ALDH1A1 block, Sfp PPTase inh, Lamin A splicing)
CC(CN1CCCCC1)OC(=O)c1ccccc1F (stereo unspecified)	G9a block inconclusive (no result: KDM4E inh, ALDH1A1 block, Lamin A splicing)
C/C=C1\COC(C(=O)NCc2ccccn2)(C(F)(F)F)C=C1C=C(C)C (stereo unspecified)	none (no result: G9a block, KDM4E inh, ALDH1A1 block, Lamin A splicing, miR-21 FLuc)
CC1CC(C)CN(CCCNC(=O)CN2C(=O)CSc3ccc(S(=O)(=O)N4CCCCC4)cc32)C1 (stereo unspecified)	none (no result: KDM4E inh, ALDH1A1 block, Lamin A splicing)
O=c1[nH]c(=S)[nH]c2nc(-c3cccs3)cc(C(F)(F)F)c12	G9a block 79.4µM (no result: KDM4E inh, ALDH1A1 block, Lamin A splicing)
O=C(CSc1nc2nc(-c3cccs3)cc(C(F)(F)F)c2c(=O)[nH]1)Nc1c(F)c(F)c(F)c(F)c1F	KDM4E inh inconclusive, ALDH1A1 block inconclusive, Lamin A splicing inconclusive
CC(=O)c1cccc(NC(=O)CCNS(=O)(=O)c2cccc(C(C)=O)c2)c1	ALDH1A1 block inconclusive
